What all share (format): cell-based
For experiment [1], the target named is T1, Protein cereblon/E3 ubiquitin-protein ligase Mdm2 (Homo sapiens) (UniProt Q00987+Q96SW2). In words: PROTAC activity at CRBN/MDM2 in human RS4-11 cells harbouring wildtype p53 assessed as decrease in MDM2 protein level at 10 nM incubated for 2 hrs by Western blot analysis. On the technique in general: In western blotting, separated proteins are transferred to a membrane and probed.

Chains of the proteins cited; added tags and fusions are not shown. Lines headed by an entry give the natural chain unless they say otherwise; changes in a name come on top.
UniProt Q00987, whole entry, looked up: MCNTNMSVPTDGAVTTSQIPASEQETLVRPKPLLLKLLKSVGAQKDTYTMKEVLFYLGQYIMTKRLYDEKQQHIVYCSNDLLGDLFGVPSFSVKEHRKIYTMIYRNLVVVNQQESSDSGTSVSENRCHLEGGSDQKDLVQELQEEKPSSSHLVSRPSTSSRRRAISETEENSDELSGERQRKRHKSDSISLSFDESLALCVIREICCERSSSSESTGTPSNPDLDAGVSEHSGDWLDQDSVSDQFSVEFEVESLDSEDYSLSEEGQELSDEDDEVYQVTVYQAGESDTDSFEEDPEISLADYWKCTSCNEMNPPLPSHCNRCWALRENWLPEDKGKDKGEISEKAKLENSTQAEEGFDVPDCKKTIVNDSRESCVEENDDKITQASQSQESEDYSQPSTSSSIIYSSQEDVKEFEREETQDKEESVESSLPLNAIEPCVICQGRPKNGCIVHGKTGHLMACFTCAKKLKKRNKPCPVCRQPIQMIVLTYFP
UniProt Q96SW2: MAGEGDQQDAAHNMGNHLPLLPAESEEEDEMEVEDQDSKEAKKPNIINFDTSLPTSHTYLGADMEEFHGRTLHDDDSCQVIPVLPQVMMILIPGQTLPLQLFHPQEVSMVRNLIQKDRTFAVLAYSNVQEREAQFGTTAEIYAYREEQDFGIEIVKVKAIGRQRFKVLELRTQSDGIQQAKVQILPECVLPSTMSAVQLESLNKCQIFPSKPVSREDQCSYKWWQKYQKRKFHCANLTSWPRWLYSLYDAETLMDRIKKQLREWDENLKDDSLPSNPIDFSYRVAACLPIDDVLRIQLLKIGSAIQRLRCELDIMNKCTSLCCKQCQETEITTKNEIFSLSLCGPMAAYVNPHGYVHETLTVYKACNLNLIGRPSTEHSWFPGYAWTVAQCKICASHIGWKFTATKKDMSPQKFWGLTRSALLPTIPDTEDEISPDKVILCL

Experiment [2] has as its target T1, Protein cereblon/E3 ubiquitin-protein ligase Mdm2 (Homo sapiens). In words: PROTAC activity at CRBN/MDM2 in human RS4-11 cells harbouring wildtype p53 assessed as decrease in MDM2 protein level at 30 nM incubated for 2 hrs by Western blot analysis.
For experiment [3] the target is unchanged. In words: PROTAC activity at CRBN/MDM2 in human RS4-11 cells harbouring wildtype p53 assessed as increase in p53 accumulation at 10 nM incubated for 2 hrs by Western blot analysis.
Experiment [4] has the same target. As to the kind of experiment: PROTAC activity at CRBN/MDM2 in human RS4-11 cells harbouring wildtype p53 assessed as increase in p53 accumulation at 30 nM incubated for 2 hrs by Western blot analysis.
For experiment [5] the target is unchanged. As to the kind of experiment: PROTAC activity at CRBN/MDM2 in human RS4-11 cells harbouring wildtype p53 assessed as decrease in MDM2 protein level at 3 nM incubated for 2 hrs by Western blot analysis.
The target is the same in experiment [6]. In words: PROTAC activity at CRBN/MDM2 in human RS4-11 cells harbouring wildtype p53 assessed as increase in p53 accumulation at 3 nM incubated for 2 hrs by Western blot analysis.
The target is the same in experiment [7]. As to the kind of experiment: PROTAC activity at CRBN/MDM2 in human RS4-11 cells harbouring wildtype p53 assessed as decrease in MDM2 protein level at 100 nM incubated for 2 hrs by Western blot analysis.
The target is the same in experiment [8]. As to the kind of experiment: PROTAC activity at CRBN/MDM2 in human RS4-11 cells harbouring wildtype p53 assessed as increase in p53 accumulation at 100 nM incubated for 2 hrs by Western blot analysis.
In experiment [9] the target is T2, E3 ubiquitin-protein ligase Mdm2 (Homo sapiens, UniProt Q00987). As to the kind of experiment: Inhibition of MDM2 in human RS4-11 cells harbouring wildtype p53 assessed as increase in p53 accumulation by measuring fold change at 100 nM incubated for 2 hrs by Western blot analysis.
In experiment [10] the target is T2, E3 ubiquitin-protein ligase Mdm2. In words: Inhibition of MDM2 in human RS4-11 cells harbouring wildtype p53 assessed as increase in p53 accumulation by measuring fold change at 300 nM incubated for 2 hrs by Western blot analysis.
Experiment [11] shares this target. As to the kind of experiment: Inhibition of MDM2 in human RS4-11 cells harbouring wildtype p53 assessed as decrease in MDM2 protein level by measuring fold change at 100 nM incubated for 2 hrs by Westernblot analysis.
Experiment [12] shares this target. In words: Inhibition of MDM2 in human RS4-11 cells harbouring wildtype p53 assessed as decrease in MDM2 protein level by measuring fold change at 300 nM incubated for 2 hrs by Westernblot analysis.
The target of experiment [13] is T1, Protein cereblon/E3 ubiquitin-protein ligase Mdm2 (Homo sapiens). As to the kind of experiment: PROTAC activity at CRBN/MDM2 in human RS4-11 cells harbouring wildtype p53 assessed as fold change in MDM2 level at 300 nM incubated for 2 hrs by Western blot analysis.
Experiment [14] has the same target. In words: PROTAC activity at CRBN/MDM2 in human RS4-11 cells harbouring wildtype p53 assessed as fold change in MDM2 level at 1000 nM incubated for 2 hrs by Western blot analysis.
Experiment [15] has the same target. In words: PROTAC activity at CRBN/MDM2 in human RS4-11 cells harbouring wildtype p53 assessed as fold change in MDM2 level at 3000 nM incubated for 2 hrs by Western blot analysis.
Experiment [16] shares this target. In words: PROTAC activity at CRBN/MDM2 in human RS4-11 cells harbouring wildtype p53 assessed as fold change in p53 accumulation at 300 nM incubated for 2 hrs by Western blot analysis.
Experiment [17] has the same target. In words: PROTAC activity at CRBN/MDM2 in human RS4-11 cells harbouring wildtype p53 assessed as fold change in p53 accumulation at 1000 nM incubated for 2 hrs by Western blot analysis.
Experiment [18] shares this target. In words: PROTAC activity at CRBN/MDM2 in human RS4-11 cells harbouring wildtype p53 assessed as fold change in p53 accumulation at 3000 nM incubated for 2 hrs by Western blot analysis.
The target in experiment [19] is T2, E3 ubiquitin-protein ligase Mdm2. In words: Induction of MDM2 degradation in human RS4-11 cells harbouring wildtype p53 assessed as fold change in MDM2 protein level at 100 nM incubated for 2 hrs by Western blot analysis.
The target is the same in experiment [20]. As to the kind of experiment: Induction of MDM2 degradation in human RS4-11 cells harbouring wildtype p53 assessed as fold change in MDM2 protein level at 300 nM incubated for 2 hrs by Western blot analysis.
Experiment [21] deals with T1, Protein cereblon/E3 ubiquitin-protein ligase Mdm2 (Homo sapiens). In words: PROTAC activity at CRBN/MDM2 in human RS4-11 cells harbouring wildtype p53 assessed as decrease in MDM2 protein level at 300 nM incubated for 2 hrs by Western blot analysis.
The target is the same in experiment [22]. In words: PROTAC activity at CRBN/MDM2 in human RS4-11 cells harbouring wildtype p53 assessed as increase in p53 accumulation at 300 nM incubated for 2 hrs by Western blot analysis.

Each structure is given as a SMILES string.

For `O=C1CCC(N2C(=O)c3cccc(NCCCCCNC(=O)c4ccc(NC(=O)[C@@H]5NC6(CCCCC6)[C@@]6(C(=O)Nc7cc(Cl)ccc76)[C@H]5c5cccc(Cl)c5F)cc4)c3C2=O)C(=O)N1` (stereo partly drawn), the fold change (FC) in experiment [1] came to 0.4; in experiment [2] it was 0.2; in [3], 2.2; in experiment [4] it was 3.9.

`O=C1CCC(N2C(=O)c3cccc(NCCOCCOCCOCCNC(=O)c4ccc(NC(=O)[C@@H]5NC6(CCCCC6)[C@@]6(C(=O)Nc7cc(Cl)ccc76)[C@H]5c5cccc(Cl)c5F)cc4)c3C2=O)C(=O)N1` (stereo partly drawn): the fold change (FC) stood at 0.3 in experiment [1], 0.4 in experiment [2], 4.4 in experiment [3] and 5.6 in experiment [4].

Turning to `O=C1CCC(N2Cc3cc(CC#CCCCNC(=O)c4ccc(NC(=O)[C@@H]5NC6(CCCCC6)[C@@]6(C(=O)Nc7cc(Cl)ccc76)[C@H]5c5cccc(Cl)c5F)cc4)ccc3C2=O)C(=O)N1` (stereo partly drawn), the fold change (FC) in [5] amounted to 0.4; in experiment [1], 0.2; in experiment [2], 0.3; in experiment [6] it was 1.7; in [3] it was 2.2; in experiment [4] it was 2.4.

Turning to `O=C1CCC(N2C(=O)c3cccc(NCCOCCNC(=O)c4ccc(NC(=O)[C@@H]5NC6(CCCCC6)[C@@]6(C(=O)Nc7cc(Cl)ccc76)[C@H]5c5cccc(Cl)c5F)cc4)c3C2=O)C(=O)N1` (stereo partly drawn), the fold change (FC) in experiment [1] amounted to 0.3; in [2], 0.4; in experiment [3] it was 3.4; in [4] it was 4.1.

For the compound `O=C1CCC(N2Cc3ccc(CC#CCCCNC(=O)c4ccc(NC(=O)[C@@H]5NC6(CCCCC6)[C@@]6(C(=O)Nc7cc(Cl)ccc76)[C@H]5c5cccc(Cl)c5F)cc4)cc3C2=O)C(=O)N1` (stereo partly drawn), the fold change (FC) is 0.4 in experiment [5]; 0.2 in [1]; 0.2 in [2]; 1.6 in experiment [6]; 2.4 in experiment [3]; 4.1 in experiment [4].

Take `O=C1CCC(N2C(=O)c3cccc(NCCCCNC(=O)c4ccc(NC(=O)[C@@H]5NC6(CCCCC6)[C@@]6(C(=O)Nc7cc(Cl)ccc76)[C@H]5c5cccc(Cl)c5F)cc4)c3C2=O)C(=O)N1` (stereo partly drawn): the fold change (FC) was 0.5 in experiment [5]; 0.3 in experiment [1]; 0.1 in experiment [2]; 1.8 in experiment [6]; 2.3 in [3]; 3.8 in experiment [4].

`O=C1CCC(N2C(=O)c3cccc(NCCOCCOCCNC(=O)c4ccc(NC(=O)[C@@H]5NC6(CCCCC6)[C@@]6(C(=O)Nc7cc(Cl)ccc76)[C@H]5c5cccc(Cl)c5F)cc4)c3C2=O)C(=O)N1` (stereo partly drawn): the fold change (FC) in experiment [5] is 0.2; in experiment [1], 0.1; in experiment [2] it was 0.07; in experiment [6], 3; in experiment [3], 4.2; in [4], 5.3.

Consider `O=C1CCC(N2C(=O)c3cccc(NCCCCCCNC(=O)c4ccc(NC(=O)[C@@H]5NC6(CCCCC6)[C@@]6(C(=O)Nc7cc(Cl)ccc76)[C@H]5c5cccc(Cl)c5F)cc4)c3C2=O)C(=O)N1` (stereo partly drawn), for which the fold change (FC) was 0.9 in experiment [2], 1.4 in experiment [4], 0.6 in [7] and 1.8 in experiment [8].

As to `O=C1CCC(N2C(=O)c3cccc(NC(=O)c4ccc(NC(=O)[C@@H]5NC6(CCCCC6)[C@@]6(C(=O)Nc7cc(Cl)ccc76)[C@H]5c5cccc(Cl)c5F)cc4)c3C2=O)C(=O)N1` (stereo partly drawn), the fold change (FC) amounted to 2.3 in experiment [9], 2.5 in [10], 1.1 in experiment [11] and 0.9 in experiment [12].

`O=C1CCC(N2Cc3c(C#CCCCNC(=O)c4ccc(NC(=O)[C@H]5NC6(CCCCC6)[C@]6(C(=O)Nc7cc(Cl)ccc76)[C@@H]5c5cccc(Cl)c5F)cc4)cccc3C2=O)C(=O)N1` (stereo partly drawn): the fold change (FC) in [13] was 1.4; in experiment [14], 1.6; in [15], 1.4; in experiment [16], 1.3; in experiment [17], 1; in experiment [18], 1.3.

`CN1C(=O)CCC(N2Cc3c(C#CCCCNC(=O)c4ccc(NC(=O)[C@@H]5NC6(CCCCC6)[C@@]6(C(=O)Nc7cc(Cl)ccc76)[C@H]5c5cccc(Cl)c5F)cc4)cccc3C2=O)C1=O` (stereo partly drawn): the fold change (FC) in experiment [13] is 2.4; in experiment [14] it was 2.3; in [15], 2.4; in experiment [16], 3.3; in experiment [17], 3.5; in experiment [18] it was 4.4.

As for `CNC(=O)c1ccc(NC(=O)[C@@H]2NC3(CCCCC3)[C@@]3(C(=O)Nc4cc(Cl)ccc43)[C@H]2c2cccc(Cl)c2F)cc1`, the fold change (FC) worked out at 1.4 in experiment [19], 3.2 in [9], 3.8 in experiment [10] and 1.7 in [20].

As to `O=C1CCC(N2C(=O)c3cccc(NCCCCCCCNC(=O)c4ccc(NC(=O)[C@@H]5NC6(CCCCC6)[C@@]6(C(=O)Nc7cc(Cl)ccc76)[C@H]5c5cccc(Cl)c5F)cc4)c3C2=O)C(=O)N1` (stereo partly drawn), the fold change (FC) in experiment [7] is 1; in [21], 0.7; in [8] it was 1.3; in experiment [22], 1.7.

Turning to `O=C1CCC(N2C(=O)c3cccc(NCCNC(=O)c4ccc(NC(=O)[C@@H]5NC6(CCCCC6)[C@@]6(C(=O)Nc7cc(Cl)ccc76)[C@H]5c5cccc(Cl)c5F)cc4)c3C2=O)C(=O)N1` (stereo partly drawn), the fold change (FC) in [2] was 0.5; in experiment [4], 1.6; in experiment [7], 0.4; in experiment [8], 2.4.
